Reference: PubChem BioAssay (NCI)
This is a selection; strong and weak results do not stand in their true shares. A structure can be active in one record and inactive in another. Active and inactive are the calls of the source. Cut-off read from the data, not from the text of the source: active = growth inhibition above about 70%; inactive = the rest.

Experiments:
[1] = NCI Yeast Anticancer Drug Screen. Data for the rad50 strain (AID 155);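 note: 0% = growth of vehicle-only cultures of the same strain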; conditions: S. cerevisiae rad50 strain growth inhibition, stronger effect = higher value
[2] = NCI Yeast Anticancer Drug Screen. Data for the mec2-1 strain (AID 157); conditions: S. cerevisiae mec2-1 strain, stronger effect = higher value
[3] = NCI Yeast Anticancer Drug Screen. Data for the sgs1 mgt1 strain (AID 161);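 note: 0% = growth of cultures given vehicle only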; conditions: S. cerevisiae sgs1 mgt1 strain, stronger effect = higher value
[4] = NCI Yeast Anticancer Drug Screen. Data for the cln2 rad14 strain (AID 165);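 note: 0% = growth equal to vehicle treated cultures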; conditions: S. cerevisiae cln2 rad14 strain, stronger effect = higher value
[5] = NCI Yeast Anticancer Drug Screen. Data for the bub3 strain (AID 167); conditions: S. cerevisiae bub3 mutant strain, stronger effect = higher value
[6] = NCI Yeast Anticancer Drug Screen. Data for the mlh1 rad18 strain (AID 175); conditions: S. cerevisiae mlh1 rad18 strain growth inhibition, stronger effect = higher value
[7] = at 5.0 µM (retest, dose inferred, filed as 0.5)
[8] = at 50.0 µM (retest, dose inferred, filed as 5.0)

Measured: growth inhibition

FC1(F)SC2C(C1(F)F)C1(Cl)C(Cl)=C(Cl)C2(Cl)C1(Cl)Cl (stereo unspecified)
active: [1]; at 3.7 µM 86% | [1]; at 11.0 µM 98% | [1]; at 33.0 µM 98% | [1]; [8] 99% | [1]; at 50.0 µM 98.7% | [1]; at 100.0 µM 98% | [2]; at 3.7 µM 90% | [2]; at 11.0 µM 99% | [2]; at 33.0 µM 98% | [2]; [8] 99% | [2]; at 50.0 µM 99.1% | [2]; at 100.0 µM 98% | [3]; [8] 99% | [3]; at 50.0 µM 99.2% | [4]; [7] 88% | [4]; [8] 99% | [4]; at 50.0 µM 99% | [5]; at 3.7 µM 85% | [5]; at 11.0 µM 99% | [5]; at 33.0 µM 98% | [5]; [8] 99% | [5]; at 50.0 µM 98.8% | [5]; at 100.0 µM 98% | [6]; [7] 70% | [6]; [8] 99% | [6]; at 50.0 µM 99%
inactive: [1]; at 1.2 µM 13% | [1]; [7] 66% | [2]; at 1.2 µM 13% | [2]; [7] 47% | [3]; [7] 40% | [5]; at 1.2 µM 9% | [5]; [7] 7%

N#Cc1cc([N+](=O)[O-])cc([N+](=O)[O-])c1N
active: [1]; at 50.0 µM 81.7% | [1]; at 100.0 µM 78% | [6]; [8] 76%
inactive: [1]; at 1.2 µM 5% | [1]; at 3.7 µM 17% | [1]; [7] -15% | [1]; at 11.0 µM 28% | [1]; at 33.0 µM 61% | [1]; [8] 50% | [2]; at 1.2 µM 6% | [2]; at 3.7 µM 12% | [2]; [7] -9% | [2]; at 11.0 µM 15% | [2]; at 33.0 µM 26% | [2]; [8] 40% | [2]; at 50.0 µM 47.4% | [2]; at 100.0 µM 40% | [3]; [7] 2% | [3]; [8] 29% | [3]; at 50.0 µM 19.6% | [4]; [7] -65% | [4]; [8] 9% | [4]; at 50.0 µM 22% | [5]; at 1.2 µM -12% | [5]; at 3.7 µM -2% | [5]; [7] -28% | [5]; at 11.0 µM 7% | [5]; at 33.0 µM 26% | [5]; [8] 19% | [5]; at 50.0 µM 13.6% | [5]; at 100.0 µM 46% | [6]; [7] -15% | [6]; at 50.0 µM 61.4%

CCN1CCN(CCCl)CC1
inactive: [1]; [7] -4% | [1]; [8] 4% | [1]; at 50.0 µM 67.8% | [2]; [7] 4% | [2]; [8] -2% | [3]; [7] 0% | [3]; [8] 2% | [4]; [7] 5% | [4]; [8] -10% | [5]; [7] 3% | [5]; [8] -4% | [5]; at 50.0 µM 7.35% | [6]; [7] -4% | [6]; [8] 8%
active: [2]; at 50.0 µM 77.4% | [3]; at 50.0 µM 80.5% | [4]; at 50.0 µM 78.8% | [6]; at 50.0 µM 92.8%

Clc1ccc(SC(Cl)C(Cl)Cl)cc1 (stereo unspecified)
active: [1]; [8] 98% | [1]; at 50.0 µM 97.8% | [2]; [8] 98% | [2]; at 50.0 µM 96.1% | [3]; [8] 98% | [3]; at 50.0 µM 97.3% | [4]; [8] 91% | [4]; at 50.0 µM 70.5% | [5]; [8] 98% | [5]; at 50.0 µM 96% | [6]; [8] 98% | [6]; at 50.0 µM 96.2%
inactive: [1]; [7] -3% | [2]; [7] -2% | [3]; [7] 5% | [4]; [7] -7% | [5]; [7] -6% | [6]; [7] -1%

C[CH2][Sn]([C]#N)([CH2]C)[CH2]C
inactive: [1]; [7] -108% | [2]; [7] -43% | [3]; [7] -51% | [4]; [7] -60% | [4]; [8] 46% | [5]; [7] -64% | [6]; [7] -117%
active: [1]; [8] 85% | [1]; at 50.0 µM 94.8% | [2]; [8] 86% | [2]; at 50.0 µM 97.3% | [3]; [8] 89% | [3]; at 50.0 µM 95% | [4]; at 50.0 µM 83.8% | [5]; [8] 91% | [5]; at 50.0 µM 92.5% | [6]; [8] 85% | [6]; at 50.0 µM 95.2%

Cc1nn(-c2ccc([N+](=O)[O-])cc2[N+](=O)[O-])nc1[N+](=O)[O-]
active: [1]; [8] 99% | [1]; at 50.0 µM 78.7% | [2]; [8] 99% | [3]; [8] 100% | [3]; at 50.0 µM 87.4% | [4]; [8] 99% | [5]; [8] 99% | [6]; [8] 99%
inactive: [1]; [7] 11% | [2]; [7] -7% | [2]; at 50.0 µM 7.9% | [3]; [7] 11% | [4]; [7] -2% | [4]; at 50.0 µM -38.5% | [5]; [7] -1% | [5]; at 50.0 µM 9.55% | [6]; [7] 19% | [6]; at 50.0 µM 57.8%

CN(C)P(=O)(N(C)C)n1c(Nc2ccccc2)nnc1-c1ccccc1
inactive: [1]; at 1.2 µM -15% | [1]; at 3.7 µM -4% | [1]; [7] 34% | [1]; at 11.0 µM 35% | [1]; [8] 67% | [2]; at 1.2 µM -21% | [2]; at 3.7 µM -10% | [2]; [7] 45% | [2]; at 11.0 µM -2% | [3]; [7] -6% | [5]; at 1.2 µM 8% | [5]; at 3.7 µM 27% | [5]; [7] 34% | [5]; at 11.0 µM 15% | [6]; [7] 36% | [6]; [8] 56%
active: [1]; at 33.0 µM 95% | [1]; at 50.0 µM 90.4% | [1]; at 100.0 µM 93% | [2]; at 33.0 µM 97% | [2]; [8] 79% | [2]; at 50.0 µM 92% | [2]; at 100.0 µM 96% | [3]; [8] 98% | [4]; [7] 74% | [4]; [8] 99% | [5]; at 33.0 µM 97% | [5]; [8] 98% | [5]; at 100.0 µM 95% | [6]; at 50.0 µM 90.3%

CCCCCCCCCC(CCCCCCCCC)NCC(C)O (stereo unspecified)
active: [1]; [8] 100% | [2]; [8] 100% | [3]; [8] 100% | [4]; [8] 99% | [5]; [8] 99% | [6]; [8] 100%
inactive: [1]; [7] 4% | [1]; at 50.0 µM 29.1% | [2]; [7] 24% | [2]; at 50.0 µM 5.6% | [3]; [7] 15% | [3]; at 50.0 µM 12.8% | [4]; [7] -2% | [4]; at 50.0 µM 25.4% | [5]; [7] 1% | [5]; at 50.0 µM 3.55% | [6]; [7] 42% | [6]; at 50.0 µM 14.8%
